miR-21 FLuc: raises the signal of a miR-21 reporter; HeLa miR-21 FLuc reporter, luciferase, 48 h; Potency, µM (top dose mostly 38.3 µM); AID 2288; 340,000 tested, under 10 active; active = well fitted rising curve with a large enough effect; inconclusive = small, poorly fitted or top-dose-only effect; inactive = no such curve, though single readings can be large or run the other way;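 note: miR-21 action dims this reporter so a rising signal means less miR-21 action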
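HeLa cells stably expressing CMV-driven firefly luciferase with a downstream miR-21 binding sequence, endogenously expressing miR-21, were treated with titrations (up to about 40uM final) for 48 hours at 37 degree Celsius. Luciferase luminescence was read after lysis.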
A549 viability: kills or reduces viability of A549 cells in Nrf2 counter-screen; A549 ARE-Fluc cells, CellTiter-Fluor viability, 18-24 h; Potency, µM (highest dose often 46 µM), most hits filed as inhibitors; actives 0.16% (n = 390,000)
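Cytotoxicity counterscreen: CellTiter-Fluor fluorescence was measured in A549 ARE_Fluc cells after 18-24 h of compound exposure in a concentration series. The subsequent BugLite luminescent read reports ARE-luciferase activity.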
Glioma ERSR ind: inducers of ER stress response in human glioma cells. U87-MG GRP78 promoter luciferase reporter, 16 h. AID 602332. Potency, µM, actives largely listed as activators. actives 0.02% (n = 420,000); also: series mostly up to about 76 µM; nearly all actives have a fitted effect of over 35% in size
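Stably transfected U87-MG human glioma cells carrying a GRP78-based luminescent sensor were seeded at 1000 cells/well, pin-dosed with compounds and incubated 16 h. Luciferase reagent was then added, and end-point luminescence was read after 10 min at room temperature.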
PTAP TSG101 blk: blocks PTAP/TSG101 interaction to inhibit HIV-1 budding; AID 493005; 340,000 tested, under 10 active; Fluorescence polarization, FITC-PTAP peptide / Tsg101 binding; Potency, µM (doses to about 115 µM), most hits filed as inhibitors; Q99816; active = well fitted inhibition curve with a large enough effect in the main read-out, with a control signal flat, not every such curve was filed as active; inconclusive = small, poorly fitted or top-dose-only effect, or effect the other way, or a change in a side signal; inactive = no such curve, though single readings can be large or run the other way
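Fluorescence polarization binding of Tsg101 binding domain (10 uM final) to FITC-labeled PTAP peptide (50 nM final) in HEPES pH 7.5 buffer with NaCl, Tween 20, EDTA, TCEP. Compounds added before peptide; binding 20 min at RT.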
Nrf2 ARE act: activates Nrf2 signaling. AREc32 ARE-luciferase reporter (MCF7-derived line), luminescence, 24 h. Potency, µM (doses to about 46.1 µM), usual class: activators. actives 0.31% (n = 410,000). AID 624171; also: nearly all actives have a fitted effect of over 65% in size
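Steps: seed AREc32_Fluc cells (1000/well, 5% FBS OPTI-MEM); incubate overnight at 37 deg C; add 23 nL compound; incubate 24 hr; add Steady-Glo; hold 30 min RT; read luminescence.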
Nrf2 inh: blocks Nrf2 signaling | A549 ARE-Fluc reporter, luciferase luminescence, 18-24 h | Potency, µM (series often up to 46 µM), usual class: inhibitors | actives 2.1% (n = 360,000); also: nearly all actives have a fitted effect of over 60% in size
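In this cell-based qHTS, ARE-driven firefly luciferase in A549 cells reports Nrf2 activity; the luminescent signal after BugLite lysis is the measured value, with a prior CellTiter-Fluor read for cell health.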
A number is an active result; . = inactive; ? = inconclusive; / = not tested or not shown. Compounds with a hit are over-represented: about 2.1% of the library has one in this group of screens. Unless noted, calls follow the shape of the dose curve; as a rule, active = well fitted curve in the direction sought with a large enough effect; inconclusive = small, poorly fitted or top-dose-only effect, or another doubt; inactive = no such curve, though single readings can be large; an effect the other way counts as inactive or inconclusive.

SMILES	miR-21 FLuc	A549 viability	Glioma ERSR ind	PTAP TSG101 blk	Nrf2 ARE act	Nrf2 inh
COC(=O)c1c(-c2cccs2)csc1NC(=O)c1ccc(C)cc1	.	.	.	/	.	?
COC(=O)c1c(-c2cccs2)csc1NC(=O)CN1CCOCC1	.	.	.	.	.	6.5µM
CSc1nc(N)c2ncn([C@@H]3O[C@H](COP(=O)(O)OP(=O)(O)O)C(O)[C@H]3O)c2n1 (some centres not stated)	/	/	.	/	/	/
Cc1cc(N/N=C/c2cccc([N+](=O)[O-])c2)nc(-n2nc(C)cc2C)n1	.	.	.	.	.	.
Cc1cc(N/N=C/c2cccc(Cl)c2)nc(-n2nc(C)cc2C)n1	.	.	.	.	.	16µM
CC(CCc1ccc(O)cc1)NC(c1ccccc1)c1ccc(Cl)cc1 (configuration not stated)	.	?	.	.	.	23µM
COCCN1CCN(C(=O)c2cnn(-c3nccc(-c4ccccc4OC)n3)c2-c2ccco2)CC1	/	/	.	/	/	/
CCC1(c2ccc(F)cc2)NC(=O)N(CC(=O)N2CCN(S(=O)(=O)c3ccc(C)cc3C)CC2)C1=O (configuration not stated)	/	.	.	.	.	18µM
Cc1cc(NC(=O)Nc2nnc(N(C)C3CCCCC3)s2)ccc1Br	.	.	.	/	.	26µM
Cc1cc(C)cc(NC(=O)Nc2nnc(N(C)C3CCCCC3)s2)c1	.	.	.	/	.	.
O=C(CCS(=O)(=O)Cc1ccccc1)Nc1ncc([N+](=O)[O-])s1	.	.	.	.	13µM	?
O=C(CCS(=O)(=O)c1ccccc1)Nc1ncc([N+](=O)[O-])s1	.	.	.	.	?	.
COc1ccccc1C(=O)N[C@@H]1c2ccccc2C2(CCN(Cc3cccnc3)CC2)[C@H]1O	/	/	.	/	/	/
CC(C(=O)N1CCCC1)N1CCN(S(=O)(=O)c2ccc(OC(F)(F)F)cc2)CC1 (configuration not stated)	/	.	.	.	.	.
CC1CC(C)CN(C(=O)C(C)N2CCN(S(=O)(=O)c3ccc(C(F)(F)F)cc3)CC2)C1 (configuration not stated)	/	?	.	.	.	18µM
Cc1cc(=O)c2ccccc2n1CC(=O)NCc1ccccc1	.	.	.	.	.	.
Cc1cc(=O)c2ccccc2n1Cc1ccccc1	.	.	.	.	.	16µM
CCCn1nnc(NCc2ccc(OCc3cccs3)c(OC)c2)n1	.	/	.	.	.	8.2µM
Cc1ccc(NC(=O)c2cccc(S(=O)(=O)N3CCN(c4ccc(F)cc4)CC3)c2)nc1	.	.	.	.	.	23µM
CN(CC(=O)Nc1ccccc1Cl)C(=O)c1cccc(S(=O)(=O)N2CCN(Cc3ccccc3)CC2)c1	/	.	.	.	.	15µM
CN(CC(=O)Nc1ccccc1Cl)C(=O)c1cccc(S(=O)(=O)N2CCN(c3ccccc3)CC2)c1	/	.	.	.	.	21µM
Cc1ccc(NC(=O)c2cccc(S(=O)(=O)N3CCCC3)c2)nc1	/	.	.	.	.	?
Cc1cccc(C)c1NC(=O)CN(C)C(=O)c1cccc(S(=O)(=O)N2CCN(c3ccccc3)CC2)c1	.	.	.	/	.	.
CN(CC(=O)Nc1cccc(F)c1)C(=O)c1cccc(S(=O)(=O)N2CCN(Cc3ccccc3)CC2)c1	/	/	.	/	.	/
CN(CC(=O)Nc1cccc(F)c1)C(=O)c1cccc(S(=O)(=O)N2CCN(c3ccc(F)cc3)CC2)c1	/	?	.	.	.	16µM
SMILES	miR-21 FLuc	A549 viability	Glioma ERSR ind	PTAP TSG101 blk	Nrf2 ARE act	Nrf2 inh
Cc1nc(C(=O)N(Cc2cc3ccc(F)cc3nc2N2CCC(O)CC2)CC2CCCO2)cs1 (configuration not stated)	/	/	.	/	/	/
Cc1ccc(Nc2nccc(N(C)c3ccc4c(C)n(C)nc4c3)n2)cc1S(N)(=O)=O	/	/	.	/	/	/
CN(Cc1cccc(Cl)c1Cl)C(=O)c1cccc(S(=O)(=O)N2CCN(Cc3ccccc3)CC2)c1	.	.	.	/	.	13µM
CN(CC(=O)Nc1ccccc1Cl)C(=O)c1cccc(S(=O)(=O)N2CCN(c3ccc(F)cc3)CC2)c1	.	.	.	.	.	5.2µM
CN(Cc1cccc(F)c1)C(=O)c1cccc(S(=O)(=O)N2CCN(Cc3ccccc3)CC2)c1	.	.	.	.	.	?
CN(CC(=O)Nc1ccccc1Cl)C(=O)c1ccc(Cl)c(S(=O)(=O)N2CCCCCC2)c1	/	.	.	.	.	?
CCn1c(-c2ccccc2F)nc2cc(NC(C)=O)cc(C(=O)NC(c3ccccn3)C(F)(F)F)c21 (configuration not stated)	/	/	.	/	/	/
Clc1ccc(-c2csc3ncnc(Sc4nnnn4C4CC4)c23)cc1	/	/	.	/	/	/
Cc1cnc(-n2ncc(C(=O)N(C)CC3COCCO3)c2C2CC2)nc1-c1cccs1 (configuration not stated)	/	/	.	/	/	/
Cn1nc(C(F)(F)F)c(C#N)c1N1CCN(c2ccc(F)cc2)CC1	.	.	.	.	.	12µM
Cc1ccccc1C1(CC(=O)N2CCOCC2)CC(=O)N(Cc2cccnc2)C1=O (configuration not stated)	/	/	.	/	/	/
CC1CC(C)CN(S(=O)(=O)c2ccc(Oc3ccc([N+](=O)[O-])cc3)cc2)C1 (configuration not stated)	.	.	.	.	.	23µM
CC1CCCN(S(=O)(=O)c2ccc([N+](=O)[O-])cc2)C1 (configuration not stated)	.	?	.	.	.	.
O=C(Nc1cc(OC(=O)C(F)(F)F)c2nonc2c1OC(=O)C(F)(F)F)C(F)(F)F	/	?	.	/	/	.
CCCC(C)C(=O)Nc1nc(C)c(-c2csc(Nc3cc(Cl)ccc3C)n2)s1 (configuration not stated)	.	.	.	.	.	23µM
Fc1cccc(C2NN=C(c3ccccc3)S2)c1 (configuration not stated)	.	.	.	.	3.5µM	?
COc1ccc(-c2nc(NC(=O)c3cc(C(C)(C)C)nn3C)sc2C)cc1	?	?	.	.	.	18µM
Cc1cc2c(s1)c1cnn(Cc3cccc([N+](=O)[O-])c3)c(=O)c1n2C	/	.	/	/	/	.
O=C(C[n+]1ccccc1Cl)c1ccc(F)cc1	/	/	.	/	/	/
Cc1cc(C(C)(C)C)oc1C(=O)N(CC(=O)NC1CCCC1)c1cccc(C(F)(F)F)c1	.	?	.	.	.	21µM
CCCC(=O)C1=C(c2ccc(C)c(C)c2)N(C(=O)CCC)n2c(CC)nnc2S1	.	.	.	/	.	/
CCC(=O)C1=C(c2ccc(OC)c(OC)c2)N(C(=O)CC)n2c(CC)nnc2S1	.	.	.	/	.	23µM

High-throughput results as filed in PubChem.
